Reference: article PMC8541915

Target: YFP-SERCA2a (type 2 sarco/endoplasmic reticulum Ca2+-ATPase, cardiac isoform 2a, labelled with YFP) (human) (UniProt P16615)
Test: FRET or BRET

mCer-PS1 (presenilin 1 with mCerulean fused to its N-terminus) (from UniProt P49768 1-467) (natural protein)
stoichiometry N (PS1 per SERCA2a): 1
